# Ab-14 light chain CDR variants: yeast mating affinities

Data: MIT Lincoln Laboratory AlphaSeq set, Li et al. 2023, doi:10.1038/s41467-023-39022-2, as distributed in FLAb.

Antigen: PDVDLGDISGINAS, a 14-residue peptide of the SARS-CoV-2 spike HR2 region.

Ab-14 is the parent antibody, in scFv form: VH, then a (GGGGS)3 linker, then VL. The heavy chain is unchanged in all variants.
VH: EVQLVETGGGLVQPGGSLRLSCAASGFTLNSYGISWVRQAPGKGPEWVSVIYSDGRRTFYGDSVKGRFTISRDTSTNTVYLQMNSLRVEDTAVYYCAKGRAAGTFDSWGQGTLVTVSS
VL: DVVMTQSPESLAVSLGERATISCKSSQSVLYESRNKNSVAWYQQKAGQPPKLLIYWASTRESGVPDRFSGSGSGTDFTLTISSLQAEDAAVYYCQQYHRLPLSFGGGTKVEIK

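The starting antibody came from a phage panning campaign against this peptide. These sequences belong to a second round, designed from the earlier measurements on random variants of the parent. Group labels follow the data file (Ctrl: baseline library sampled from a position-specific scoring matrix, with some repeated check sequences; En: ensemble of fine-tuned language models; GP: Gaussian process model; HC: hill climbing; Gen: genetic algorithm; Gibbs: Gibbs sampling; a sequence that several methods proposed may carry one label only). The assay is AlphaSeq: two haploid yeast populations carry antibody and antigen on their surface. The frequency of each diploid, read from paired DNA barcodes, reflects how well the two displayed proteins bind. A regression on co-assayed BCL2-family reference pairs converts the normalised counts of each replicate to an apparent Kd. Mating was done six times.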

Variants are written as CDR1, CDR2 and CDR3 of the light chain (limits as in the source). Parent: KSSQSVLYESRNKNSVA, WASTRES, QQYHRLPLS. The read-out is the apparent dissociation constant on a log10 scale (nM): the lower, the stronger. An entry "nd" has no value in the source: the pair was not observed among the diploids in that replicate. This suggests poor binding but is not conclusive. The range of this assay differs from that of the first round, and the authors advise against merging the two. The authors' rule: three or more of the six replicates give a measured affinity, fewer mean a poor binder. Three control strains display no target. For all light chain designs, 4% of the pairings with them gave a signal, with a median of 2.64 and one signal in twenty below 1.59, so weak values seen in few replicates may be background.

nd, 2.18, 2.15, 1.87, nd, 1.69: KCSQSVGYESRNKNSVA, WASHREQ, QQYHRLFLS [Ctrl].
1.63, 1.23, 1.67, 1.22, 1.76, 1.59: KLYQSEWYESRMCNSVA, NASVREC, QQYHRLPLS [GP_Gibbs].
nd, 1.59, 1.91, 1.80, 1.53, 1.55: MLSQVLHMAGVKKNSIA, DLVLRAN, QQYHRLPLS [En_Gen].
2.14, 2.59, nd, nd, nd, 2.13: KLRESIHVETKQKNNVA, DNSTRES, QDYHRLPLS [En_HC].
nd, nd, 1.04, 0.65, 1.84, nd: TMLHELIQDDPMYNNVA, DQSLKTA, QQYYRLPLS [En_Gibbs].
nd, nd, 2.32, 2.21, 2.47, 3.22: RILYEQFGNTYSVNNVA, QAHVRAY, QMYNRLPLS [En_Gibbs].
nd, nd, nd, nd, nd, nd: KLSGLMASSKFAKDNVA, ENNTRED, QQYNRLPLS [En_Gen].
-0.36, -0.37, -0.37, -0.49, -0.47, -0.28: KLRQSTLYESRNQNSVA, SASTRES, QQYHRLPLS [GP_HC].
0.77, 0.55, 0.45, 0.42, 0.55, 0.62: KSAYSCLGESRNCNSVA, SASTREL, QQYHRLPLS [GP_Gibbs].
nd, nd, nd, nd, nd, 2.40: MIYGAARELGLAANSIA, DNVTRYN, QQYERLPLS [En_Gen].
0.80, 0.72, 0.62, 0.97, 0.54, 0.99: TLYGLSMSMSKNKNNVA, EMTTREK, QQYDRLPLQ [En_Gen].
0.14, 0.42, 0.38, -0.34, 0.34, 0.73: KSSISYLYESRNINSVA, EASTREQ, QQYHRLPLS [GP_HC].
nd, nd, nd, nd, nd, nd: MSSQSVLEESRNASSVA, WASTRES, QQYHRLPLS [Ctrl].
1.57, nd, 1.35, 1.50, 2.87, 1.61: KSSQSVLMEDRNKNSVA, WGSTRES, QQYHSLPLS [Ctrl].
0.54, 0.47, 0.24, 0.05, 0.17, 0.34: KLSQSELYESRNKNSVA, EASTREV, QQYHRLPLS [GP_Gen].
0.07, -0.13, -0.05, -0.08, -0.09, 0.13: KVLQSVLYESRNKNSVA, HASTRED, QQYHQLPLI [GP_HC].
0.07, -0.17, -0.17, -0.21, -0.28, -0.07: FLSQSWDYESRPKNSVA, NASTRMS, QQYHRLPLS [GP_Gibbs].
-0.23, -0.36, -0.42, -0.50, -0.22, -0.06: KLSQSELFESRNKNSVA, DASTRES, QQYHRLPLS [GP_HC].
1.47, 1.22, 0.85, 0.93, 1.06, 1.26: KISQMVRVGSTVGNSIA, EEVTRAK, QQYHRLPLF [En_Gen].
2.00, nd, 1.42, 2.04, 1.07, 0.77: KMSQSAPMESRNWNSVA, NASKRES, QQYHRLPLS [GP_Gibbs].
0.38, 0.31, -0.16, -0.07, 0.17, 0.10: KLTMITGLEKVSGNNVA, EMETRER, QQYNRLPLA [En_Gen].
0.37, 0.36, 0.17, 0.18, 0.30, 0.36: KLGGVTEYEMRNKNSVA, QMTTRES, QQYDRLPLS [En_HC].
-0.04, -0.15, -0.10, -0.13, -0.06, 0.04: KLQQSVLYESRNKNSVA, GASTRES, QDYHRLPLS [GP_Gen].
0.19, 0.00, 0.05, 0.10, -0.09, 0.34: KSSQLVLYESRNKNSVA, DGSTRES, QQYHRLPLS [Ctrl].
0.89, 1.35, 0.72, 1.02, 0.99, 0.76: KVAQSELYESRNKNSVA, EASTRES, QQYHRLPLS [GP_Gen].
0.30, -0.07, -0.04, 0.10, 0.06, -0.01: NLTDAMASYTGDRHSIA, DKTVTAP, QQYSRLPIT [En_Gibbs].
nd, 1.97, nd, nd, 2.24, 3.56: KSSQSVPYESRNKNSVA, AASTRES, QQYHRLPLS [GP_Gen].
0.51, 1.07, 0.83, 0.71, 0.48, 0.69: ILMQVYKEPGAAVNNIA, DGSIRLQ, QQYHRLPLV [En_Gibbs].
0.22, -0.12, 0.61, -0.02, -0.14, 0.33: KSEISVLQESRNQNSVA, SASTREV, QQYHRLPLS [GP_Gibbs].
1.73, 1.58, 1.95, 0.87, 1.59, 1.04: KLDGSDLYEQRNKNSVA, EASTRES, QAYHRLPLS [GP_Gibbs].
0.78, 0.94, 0.76, 0.73, 0.53, 1.15: KLQQADLYESRNANSVA, QASQRES, QCYHRLPLS [GP_Gibbs].
1.09, 0.80, 0.91, 1.24, 1.19, 1.12: KIAYMGEHFSTNHSAIA, QASTREQ, QQYHRLPIS [En_HC].
0.10, -0.05, 0.06, -0.10, -0.03, 0.05: KSSLSVKFESRNKNSVA, DASTRES, QQYHRLPLS [GP_HC].
1.35, 2.03, 0.60, 1.16, 1.08, 0.74: TLMQPQKELGAAKDNIA, DGSIRLG, QQYHRLPLV [En_Gibbs].
1.09, 0.94, 0.65, 1.01, 0.76, 0.75: IFSQSVLMGNLTKNSVA, QASQRFN, QQYHRLPLI [En_HC].
0.31, 0.50, 0.16, 0.01, 0.42, 0.42: KFSQSVLYESRTKNSVA, NASTRES, QTYHRLPLS [GP_HC].
nd, nd, nd, nd, nd, nd: QIFGKLQEHGNQKANVA, QGVESRN, QQYFVLPLT [En_Gibbs].
-0.06, -0.38, -0.33, -0.26, -0.37, 0.05: KISQSFLYESRNFNSVA, GASTRES, QQYHRLPLS [GP_HC].
0.16, 0.14, -0.02, -0.10, 0.04, 0.10: KLSQSDLYESRNKNNVA, EASTRES, QQYHRLPLS [GP_Gen].
-0.26, -0.35, -0.20, -0.53, -0.53, -0.29: KLSQSHLYESRNSNNVA, NASTRES, QQYHRLPLS [GP_Gen].
1.05, 0.62, 0.49, 0.72, 0.66, 0.68: ALQDVTRMESNKKNSIA, DMSNRES, QQYHRLPLS [En_HC].
0.02, 0.50, -0.08, 0.08, -0.08, 0.31: KLSQSVLYESRNKNSVA, EASQRES, QQYHRLPLS [GP_Gen].
nd, 2.37, nd, 4.53, nd, nd: KSYQNVQYESRPKNSVA, WASTRES, QQYHRLPLS [Ctrl].
-0.32, -0.37, -0.46, -0.45, -0.39, -0.23: KLDQSQLYESRNKNSVA, EASTRES, QQYHRLPLS [GP_Gen].

For reference, 4 entries of the list once more:

With KLSQSVLYESRNKNSVA, EASQRES, QQYHRLPLS [GP_Gen] the result was 0.02, 0.50, -0.08, 0.08, -0.08, 0.31.
With KISQSFLYESRNFNSVA, GASTRES, QQYHRLPLS [GP_HC] the result was -0.06, -0.38, -0.33, -0.26, -0.37, 0.05.
With KSSQSVPYESRNKNSVA, AASTRES, QQYHRLPLS [GP_Gen] the result was nd, 1.97, nd, nd, 2.24, 3.56.
With KISQMVRVGSTVGNSIA, EEVTRAK, QQYHRLPLF [En_Gen] the result was 1.47, 1.22, 0.85, 0.93, 1.06, 1.26.